# According to PubChem BioAssay AID504577 (NMMLSC, 2011):
# This is a selection; strong and weak results do not stand in their true shares. The source made the active and inactive calls. No stated cut-off is given here; in the data, active means response mostly above about 7.3% (no sharp cut-off); inactive means mostly below about 5.4%.
# Assay: yeast vacuolar ATPase proton transport modulators – pHLuorin cytosolic pH fluorescence, primary screen (AID 504577); further: actives read high
# Details: S. cerevisiae, at 10 µM, hits give high values
row,SMILES,response
1,O=[N+]([O-])c1cc([N+](=O)[O-])c(CCNc2ccccc2)c([N+](=O)[O-])c1,inactive: 0.55%
2,CC(C)(C)C(=O)NC(Sc1ccncn1)C(Cl)(Cl)Cl (stereo unspecified),inactive: 6.64%
3,O=[N+]([O-])c1ncn(CCn2ncnc2[N+](=O)[O-])n1,inactive: 0.5%
4,COC(=O)C1(C)COP(=O)(Nc2ccccc2)OC1 (stereo unspecified),inactive: -1.94%
5,O=[N+]([O-])c1cccc(NC2=NCC(CBr)S2)c1 (stereo unspecified),inactive: -4.03%
6,O=C(O)CNc1ccc([As](=O)(O)O)cc1,inactive: -2.09%
7,O=P1(N(CCCl)CCCl)OCCCS1 (stereo unspecified),inactive: -1.51%
8,O=C(Nc1cc([As](=O)(O)O)ccc1O)c1ccccc1,inactive: 1.65%
9,CCN(N=Nc1nonc1N)c1nonc1N,inactive: 3.22%
10,Nc1cccc2ccc([As](=O)(O)O)cc12,inactive: -1.13%
11,CC(=O)Nc1ccc([As](=O)(O)O)cc1,inactive: 3.88%
12,O=C(O)c1ccccc1[As](=O)(O)O,inactive: -5.28%
13,CCCC1OP(N)(=O)OCC1CC (stereo unspecified),inactive: -0.36%
14,O=P(Nc1nc2ccc(Cl)cc2s1)(c1ccccc1)c1ccccc1,inactive: -0.13%
15,CN(C)P(=O)(N(C)C)n1c(Nc2ccccc2)nnc1-c1ccccc1,inactive: 2.47%
16,Cc1cc(SC(NC(=O)c2ccc(F)cc2)C(Cl)(Cl)Cl)ncn1 (stereo unspecified),inactive: -1.23%
17,CCOP(=O)(Nc1ccccc1)OCC,inactive: 0.5%
18,Cc1ccc(NP(=O)(Oc2ccccc2F)Oc2ccccc2F)nc1,inactive: -2.41%
19,CN(C(=O)Cc1ccc(Cl)c(Cl)c1)[C@H]1CCCC[C@@H]1N1CCCC1,inactive: -3.62%
20,Nc1cc(N)c2nonc2c1[N+](=O)[O-],inactive: 2.71%
21,CC(C)CC(=O)NC(Sc1ccc(Cl)cc1)C(Cl)(Cl)Cl (stereo unspecified),inactive: 3.12%
22,Oc1ccccc1CNc1ccccn1,inactive: -5%
23,O=C(NC(Sc1ccncn1)C(Cl)(Cl)Cl)c1ccccc1 (stereo unspecified),inactive: 0.16%
24,NC(=O)c1cc([N+](=O)[O-])cc([N+](=O)[O-])c1N,inactive: 1.32%

row,SMILES,response
1,CN(C(=O)Cc1ccc(Cl)c(Cl)c1)[C@H]1CCCC[C@H]1N1CCCC1,inactive: 1.69%
2,Cc1ccc(N/C(=N/P(=O)(N2CCOCC2)N2CCOCC2)N2CCOCC2)cc1,inactive: 1.4%
3,COc1ccccc1OP(=O)(Nc1ccc(C)cn1)Oc1ccccc1OC,inactive: -2.33%
4,Cc1ccc(OP(=O)(Nc2nccs2)Oc2ccc(C)cc2)cc1,inactive: -3.74%
5,CN1CCCC(OC(=O)C(c2ccccc2)c2ccccc2)C1 (stereo unspecified),inactive: 5.16%
6,Clc1ccc(Cl)c(NC2=NCC(CBr)S2)c1 (stereo unspecified),inactive: -0.61%
7,CC(=O)c1ccc(N2CC2c2ccncc2)cc1 (stereo unspecified),inactive: 0.2%
8,N#C/C(=C\c1ccc(N(CCBr)CCBr)cc1)C(N)=O,inactive: 1.39%
9,COC(=O)C1(C)COP(=O)(NCc2ccccc2)OC1 (stereo unspecified),inactive: 1.31%
10,Cc1ccccc1CN(C)C(=O)COC(=O)C(O)(c1ccccc1)c1ccccc1,inactive: -1.64%
11,C[C@H]1OP(=O)(Oc2ccccc2)C[C@@H]2O[C@@H]21 (stereo partly specified),inactive: 0.23%
12,C[C@@H]1C=CCP(=O)(Oc2ccccc2)O1 (stereo partly specified),inactive: 1.28%
13,CC(=O)Nc1ccc([As](=O)(O)O)c(O)c1,inactive: -2.21%
14,CC(=O)Nc1ccc(Oc2c([N+](=O)[O-])cc([N+](=O)[O-])cc2[N+](=O)[O-])cc1,inactive: -0.83%
15,O=P1(Nc2nc3ccc(Cl)cc3s2)COc2ccccc2O1 (stereo unspecified),inactive: 3.81%
16,CCOc1ccc(C2=NCC(CBr)S2)cc1 (stereo unspecified),inactive: 0.11%
17,CCc1cc(O)c([N+](=O)[O-])c(C)c1[N+](=O)[O-],inactive: 0.97%
18,CC(C)(C)C(=O)NC(Sc1ccccc1)C(Cl)(Cl)Cl (stereo unspecified),inactive: 0.8%
19,COC(=O)c1cc2c(s1)N=C(c1ccccc1)N(C)P2(=O)N1CCOCC1 (stereo unspecified),inactive: -2.66%
20,CC(=O)NC(SC(=S)N(CC(C)C)CC(C)C)C(Cl)(Cl)Cl (stereo unspecified),inactive: 3.07%
21,Cc1ccc(OP(=O)(Nc2ccccn2)Oc2ccc(C)cc2)cc1,inactive: -0.74%
22,O=C(OC1CN2CCC1CC2)c1ccccc1 (stereo unspecified),inactive: -1%
23,CCC(=O)N1C2C3N(C(=O)CC)C1C1N(C(=O)CC)C(C(N1C(=O)CC)N3C(=O)CC)N2C(=O)CC,inactive: -1.47%
24,CC(NC(=O)COC(=O)C(O)(c1ccccc1)c1ccccc1)c1ccccc1 (stereo unspecified),inactive: -2.97%

row,SMILES,response
1,Cc1ccccc1OP(=O)(Nc1ccccn1)Oc1ccccc1C,inactive: -1.72%
2,O=c1c2cc([N+](=O)[O-])ccc2[nH]c2c([N+](=O)[O-])cc([N+](=O)[O-])cc12,inactive: 2.01%
3,CN(C)C(=O)Oc1noc2ccccc12,inactive: 0.75%
4,CCNC(=S)/N=C(\N)N[N+](=O)[O-],inactive: 0.6%
5,O=C(NC1CCS(=O)(=O)C1)NP(=S)(Oc1ccccc1)Oc1ccccc1 (stereo unspecified),inactive: 0.91%
6,c1ccc(-c2nn[nH]n2)c(-c2nn[nH]n2)c1,inactive: -0.42%
7,Cc1ccc(NP(=O)(Oc2cccc(C)c2)Oc2cccc(C)c2)nc1,inactive: -1.9%
8,O=P1(N(CCCl)CCCl)OCCC2CCCCN21 (stereo unspecified),inactive: 2.09%
9,O=[N+]([O-])c1ccc(O)c(/C=N/Nc2ccc([N+](=O)[O-])cc2[N+](=O)[O-])c1,inactive: 1.36%
10,CC(=O)NC(SC(=S)N(C)C)C(Cl)(Cl)Cl (stereo unspecified),inactive: -3.78%
11,O=[N+]([O-])c1ncn(CCn2cnc([N+](=O)[O-])n2)n1,inactive: -1.56%
12,O=[As](O)(c1ccccc1)c1ccc(O)cc1,inactive: 1.06%
13,C(Cc1nn[nH]n1)Cc1nn[nH]n1,inactive: 1.31%
14,Nc1ccc([As](=O)(O)c2ccc([N+](=O)[O-])cc2)cc1,inactive: -1.78%
15,O=C(OC1CN2CCC1CC2)c1cccc(Cl)c1 (stereo unspecified),inactive: -2.65%
16,COc1ccc(N)c([N+](=O)[O-])c1[N+](=O)[O-],inactive: 0.16%
17,O=P(Nc1ccccn1)(c1ccc(Br)cc1)c1ccc(Br)cc1,active: 10.8%
18,CN(C)C1(CNC(=O)c2ccc(Cl)c(S(N)(=O)=O)c2)CCCCC1,inactive: 0.19%
19,O=P(Nc1nc2ccccc2s1)(c1ccccc1)c1ccccc1,inactive: 3.3%
20,C[C@H]1OP(=O)(Oc2ccccc2)[C@H](O)[C@H](O)[C@H]1N=[N+]=[N-] (stereo partly specified),inactive: -0.34%
21,CC(C)C(=O)NC(Sc1ccccc1)C(Cl)(Cl)Cl (stereo unspecified),inactive: 2%
22,O=P(Nc1nccs1)(c1ccccc1)c1ccccc1,inactive: 1.79%
23,c1nnnn1CCn1cnnn1,inactive: 2.21%
